Data from ChEMBL document CHEMBL4507308 (2021).

Protein sequences, listed by entry. Tags and fused reporters are not part of them.
UniProt Q99720, whole entry, looked up: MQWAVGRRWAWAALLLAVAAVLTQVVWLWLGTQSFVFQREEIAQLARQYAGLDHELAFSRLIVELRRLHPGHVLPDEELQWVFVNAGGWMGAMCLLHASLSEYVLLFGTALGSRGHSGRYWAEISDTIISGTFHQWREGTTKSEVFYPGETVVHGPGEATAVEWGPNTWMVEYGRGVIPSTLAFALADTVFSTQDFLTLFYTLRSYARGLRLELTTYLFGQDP

Molecular target: Sigma non-opioid intracellular receptor 1 (Homo sapiens, UniProt Q99720)
Test: GPCRScan assay: inhibition of Sigma 1

Compound `Cc1cnc(-c2cc(Cl)ccc2F)cc1-n1c(=O)n(CC(N)=O)c2cnccc21` [TP-008] has a Ki of 10 µM.
